Source: patent US9834558B2, “Substituted bridged urea analogs as sirtuin modulators” (GLAXOSMITHKLINE LLC, priority 2013, dated 2017)

Biological target: T1, hSIRT1(229-516) (Homo sapiens, UniProt Q96EB6)
T1 sequence (Q96EB6 229-516): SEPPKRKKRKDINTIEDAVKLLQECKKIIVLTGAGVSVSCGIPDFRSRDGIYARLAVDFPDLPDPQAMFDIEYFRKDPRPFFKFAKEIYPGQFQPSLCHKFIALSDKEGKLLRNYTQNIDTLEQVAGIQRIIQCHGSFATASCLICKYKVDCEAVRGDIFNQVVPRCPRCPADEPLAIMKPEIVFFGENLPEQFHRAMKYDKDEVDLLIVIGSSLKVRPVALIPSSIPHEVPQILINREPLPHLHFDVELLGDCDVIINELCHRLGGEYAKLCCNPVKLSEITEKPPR
Assay: Deacetylation assay of hSIRT1 catalytic core with CBS peptide (PNC1/GDH coupled assay)
Assay type: biochemical
Procedure: We also designed a minimal CBS fragment covering only the β-stranded region (642-658), which behaves similarly to the parental CBS peptide.
Final concentrations of the PNC1/GDH coupling system components used were 20 units/mL bovine GDH (Sigma-Aldrich), 1 uM yeast PNC1, 3.4 mM a-ketoglutarate, and 220 μM NADH or NADPH. An extinction coefficient of 6.22 mM^−1 cm^−1 and a pathlength of 0.81 cm was used to convert the absorbance at 340 nm to product concentration for the 150 uL reactions used. […] Quenched reactions were diluted 5-fold with 1:1 acetonitrile:methanol and spun at 5,000×g for 10 minutes to precipitate protein before being analyzed with an Agilent RapidFire 200 High-Throughput Mass Spectrometry System (Agilent, Wakefield. Mass.) coupled to an ABSciex API 4000 mass spectrometer fitted with an electrospray ionization source. The p53-based Ac-p53(W5) (Ac-RHKK^AcW-NH2) and FOXO-3a 21-mer (Ac-[…]^Ac[…]-NH2) peptides were obtained from Biopeptide, Inc. Deacetylation assays used the Ac-p53(W5) substrate unless otherwise noted.
Substrate KM determinations were performed by varying one substrate concentration at a fixed, saturating concentration of the second substrate. SIRT1 activation and inhibition assays were run in reaction buffer with 0.05% BSA at 25° C. and analyzed using the OAcADPr assay. Enzyme and compound were pre-incubated for 20 minutes before addition of substrates. […]

- lowering of the KM values for peptide substrate and NAD+ of hSIRT1cc: 4-5 fold
- EC50 (hSIRT1cc, read-out: EC50 for restoring the catalytic activity of hSIRT1cc in trans): 59 nM
SMILES: CC[C@H](C)[C@H](NC(=O)[C@H](Cc1ccc(O)cc1)NC(=O)[C@H](CCCNC(=N)N)NC(=O)[C@H](CC(N)=O)NC(=O)[C@@H]1CCCN1C(=O)[C@@H]1CCCN1C(=O)[C@H](CC(C)C)NC(=O)[C@H](Cc1ccccc1)NC(=O)[C@H](CC(C)C)NC(=O)[C@H](Cc1ccc(O)cc1)NC(=O)[C@@H](N)CCC(N)=O)C(=O)N[C@@H](Cc1ccccc1)C(=O)N[C@@H](Cc1c[nH]cn1)C(=O)NCC(=O)N[C@@H](C)C(=O)N[C@@H](CCC(=O)O)C(=O)N[C@H](C(=O)N[C@@H](Cc1ccc(O)cc1)C(=O)N[C@@H](CO)C(=O)N[C@@H](CC(=O)O)C(=O)N[C@@H](CO)C(=O)N[C@@H](CCC(=O)O)C(=O)N[C@@H](CC(=O)O)C(=O)N[C@@H](CC(=O)O)C(=O)N[C@H](C(=O)O)C(C)C)C(C)C [CBS peptide]
